Source: PubChem BioAssay (ICCB-Longwood Screening Facility, Harvard Medical School)
GIV-Gai inh = inhibitors of GIV GBA-motif binding to rat Galpha-i3; P08753; Galpha-i3/FITC-GIV peptide fluorescence polarization, 90 min; hits give low values; scaled: aluminum fluoride 0%, vehicle 100%; percent of control (FP), % (no concentration beside the values); hit rate 0.42% among 210,000; AID 1224905;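 active = replicate mean at 85% of control or lower, very high polarization wells dropped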;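 note: wells of about 15 µL received 100 nL stock; the first replicate is given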
HCMV NEC inh = inhibitors of HCMV UL50-UL53 interaction, biochemical, HTRF | 190,000 tested, 0.15% active | normalized percent inhibition | inhibition, % (concentration not given with the values); in the data active means inhibition above about 27%, passing the limit was not always enough
GIV Gai FP conf = inhibitors of GIV peptide binding to Galpha-i3, confirmation, biochemical, fluorescence polarization, FITC-GIV peptide, rat Galphai3; fluorescence polarization, mP at 100 µM; 580 tested, 38% active; hits give low values; shares compounds with GIV-Gai inh;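 active means inhibition score of 15 or more, meaning 100 minus mean polarization as percent of control over three replicates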;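 further: lower mP means peptide displaced from Galphai3 so more inhibition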
GIV-Gai AS conf = inhibitors of GIV binding to Galpha-i3, confirmation, orthogonal assay for GIV-Galpha-i inhibitor project, biochemical, AlphaScreen, His-GIV, GST-Galphai3; shares compounds with GIV-Gai inh; purified proteins, 90 min; hits give low values; AlphaScreen counts at 100 µM; 580 tested, 39% active;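 active means inhibition score at or above a set limit, where the score is 100 minus the three-replicate mean percent of control signal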
A number is an active result; . = inactive; / = no result. The full list was thinned out, with hits kept by preference.

SMILES	GIV-Gai inh	HCMV NEC inh	GIV Gai FP conf	GIV-Gai AS conf
O=C1c2cccc([N+](=O)[O-])c2C(=O)N1C1C(=O)N(c2cccc(C(F)(F)F)c2)C1c1cccs1 (configuration not stated)	.	/	/	/
CCCCC1(C)NC(=S)N(c2ccc(C)cc2)N1 (configuration not stated)	.	/	/	/
O=C(NCc1ccccc1Cl)c1ccc2c(c1)nc1n2CCOC1	.	/	/	/
O=C1CN(C(=O)CSc2ncc(C(F)(F)F)cc2Cl)c2ccccc2N1	/	.	/	/
O=C1CN(C(=O)CSCc2c(F)cccc2Cl)c2ccccc2N1	.	.	.	.
O=C1S/C(=C\c2ccccc2)C(=O)N1CN1CCOCC1	.	.	/	/
C=CCN1C(=O)S/C(=C/c2ccc(N3CCOCC3)cc2)C1=O	.	.	.	.
CCCN1CC=C2C(C#N)=C(N)C(C#N)(C#N)C(c3ccc(OC)cc3)C2C1 (configuration not stated)	.	/	/	/
CCCN1CC=C2C(C#N)=C(N)C(C#N)(C#N)C(c3ccc(OCC(N)=O)cc3)C2C1 (configuration not stated)	85	.	.	.
COC(=O)c1ccc(COC(=O)C2CCN(C(=O)c3ccc(Cl)cc3)CC2)o1	/	.	/	/
CCOC(=O)/C(C#N)=C\c1cc2ccc(OC)cc2[nH]c1=O	56	.	.	.
COc1cccc(C(=O)NCCc2cc3ccc(OC)cc3[nH]c2=O)c1	.	.	/	/
CCNc1nc(NC(C)C)nc(-n2cnc(SC)n2)n1	.	.	/	/
Cc1ccc(-c2nc3ccccc3c(=O)[nH]2)cc1	.	.	/	/
O=c1[nH]c(-c2ccc(O)cc2)nc2ccccc12	.	.	.	.
CCOc1ccc(NC(=O)C2CCCN(S(=O)(=O)Cc3ccc(F)cc3)C2)cc1 (configuration not stated)	.	/	/	/
COC(=O)c1cc2ccsc2n1CC(=O)Nc1cc(OC)ccc1OC	.	.	/	/
CCOC(=O)COc1ccc2c(C#N)c3ccccn3c2c1	43	.	.	.
N#Cc1c2ccc(OCC(N)=O)cc2n2ccccc12	.	.	/	/
Cc1cc(C)cc(-c2cc3nc(C)cc(N4CCC(C(=O)NC5CCCCC5)CC4)n3n2)c1	.	/	/	/
Cc1ccc(-c2csc(-c3c(N)c(C(=O)c4ccc5c(c4)OCO5)n4ccccc34)n2)cc1C	.	.	/	/
Nc1c(-c2nc(-c3ccc(F)cc3)cs2)c2ccccn2c1C(=O)c1ccc2c(c1)OCO2	75	.	.	.
Cc1noc2nc(CCC(=O)O)nc(N3CCOCC3)c12	.	.	/	/
CCN(CC)CCNc1ccc(C(F)(F)F)cn1	.	.	/	/
O=C(O)c1cc(N2N=C(C(F)(F)F)/C(=C/c3ccc(-c4ccccc4)o3)C2=O)ccc1Cl	/	.	/	/
SMILES	GIV-Gai inh	HCMV NEC inh	GIV Gai FP conf	GIV-Gai AS conf
Clc1ccc(-c2ccc(CNC3CC3)o2)c(Cl)c1	.	.	/	/
COC(=O)c1ccc(-c2c3c(nc4nc(N)[nH]c(=O)c24)-c2ccccc2C3=O)cc1	75	.	.	.
CCOC(=O)c1c(C)nc2c(c1-c1ccc(OC)c(OC)c1)C(=O)c1ccccc1-2	/	.	/	/
COc1ccc(NC(=O)C2OC3OC4(CCCCC4)OC3C3OC4(CCCCC4)OC23)cc1Cl (configuration not stated)	.	/	/	/
NC(=O)c1ccc(NC(=O)CSc2cccc[n+]2[O-])cc1	/	.	/	/
COc1ccc(C2=N/C(=C/c3cc4ccccc4n3C(C)=O)C(=O)O2)cc1Br	.	/	/	/
CC(=O)n1c(/C=C2/N=C(c3cccs3)OC2=O)cc2ccccc21	.	.	.	.
O=C(O)Cn1c2ccc(Cl)cc2c2nc3ccccc3nc21	/	.	/	/
O=C(O)Cn1c2c(c3ccccc31)CSc1ccc(Cl)cc1-2	.	/	.	18488
CC1(c2ccccc2)COC2(OC1)C(=O)N(CN1CCC(Cc3ccccc3)CC1)c1ccccc12 (configuration not stated)	.	/	/	/
CC1(C(=O)NCc2ccc(F)cc2)CCCN(C(=O)c2ccc(F)c(F)c2)C1 (configuration not stated)	.	/	/	/
CCOc1ccc(-c2nonc2NC(=O)C(C)Oc2ccc(F)cc2)cc1C (configuration not stated)	84	.	.	.
CCOc1ccc(-c2nonc2NC(=O)C(C)Oc2ccc(CC)cc2)cc1C (configuration not stated)	.	.	/	/
